Assay results: PubChem BioAssay AID493012 (Sanford-Burnham Center for Chemical Genomics, 2011)
The entries are a selection whose mix differs from that of the whole data set. Some salts or complexes appear as unconnected parts, following the source record. Calls of active or inactive are those of the source.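 The calls were made as follows: active = inhibition of at least 40% at 20 µM, with no more than 30% in the related APOBEC3A deaminase screen; inactive = the rest.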

Amino acid sequences for entries named in this document (tags omitted).
UniProt Q9HC16, whole entry: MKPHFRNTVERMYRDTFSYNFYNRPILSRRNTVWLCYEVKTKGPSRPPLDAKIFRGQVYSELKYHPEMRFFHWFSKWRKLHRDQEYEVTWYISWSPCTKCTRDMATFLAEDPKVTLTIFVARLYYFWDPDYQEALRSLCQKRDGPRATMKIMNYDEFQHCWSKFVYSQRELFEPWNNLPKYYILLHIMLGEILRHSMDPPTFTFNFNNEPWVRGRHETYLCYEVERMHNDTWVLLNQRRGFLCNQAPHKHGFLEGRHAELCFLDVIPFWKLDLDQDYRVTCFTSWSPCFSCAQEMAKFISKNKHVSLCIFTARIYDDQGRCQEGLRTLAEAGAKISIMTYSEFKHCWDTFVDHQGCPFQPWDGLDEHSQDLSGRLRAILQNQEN

Target: DNA dC->dU-editing enzyme APOBEC-3G (Homo sapiens) (UniProt Q9HC16)
Assay: inhibition of human A3G ssDNA deamination – biochemical, fluorescence, single-stranded DNA substrate, uHTS, primary screen (AID 493012);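 also: plate controls were DMSO wells with A3G for no effect and wells lacking A3G enzyme for full effect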
Conditions: recombinant A3G, ssDNA deamination FAM/TAMRA fluorescence; at 20 µM; active compounds read high

Structure (SMILES) | inhibition
COc1ccccc1OP(C)(=O)Nc1ccccc1 (stereo not given) | inactive: -12.7%
CP(=O)(Nc1ccccc1Br)Oc1ccccc1 (stereo not given) | inactive: -4.83%
CP(=S)(Nn1cnnc1)Oc1ccccc1 (stereo not given) | inactive: -7.73%
CP(=O)(Nc1ccccn1)Oc1ccc(Cl)cc1 (stereo not given) | inactive: 6.18%
CCOP(C)(=S)SCC(=O)NC(C)C(=O)O (stereo not given) | inactive: -5.99%
CCOC(=O)c1ccc(NP(C)(=O)Oc2ccc(OC)cc2)cc1 (stereo not given) | inactive: -6.07%
O=[N+]([O-])c1cc([N+](=O)[O-])c(O)c([N+](=O)[O-])c1.c1ccc(Oc2ccncc2)cc1 | inactive: -0.881%
Cc1cc(C)cc(OP(C)(=O)Nc2ccc(SC(F)(F)F)cc2)c1 (stereo not given) | inactive: -2.53%
CP(=O)(NC(=O)Nc1ccccc1)Oc1ccccc1 (stereo not given) | inactive: -7.5%
CCc1ccc(OP(C)(=O)N2CCN(c3ccc([N+](=O)[O-])cc3)CC2)cc1 (stereo not given) | inactive: -6.89%
CP(=O)(Oc1ccccc1)OC(c1ccccc1)C(F)(F)F (stereo not given) | inactive: -2.2%
Cc1cccc(C)c1OP(C)(=O)Nc1ccc(SC(F)(F)F)cc1 (stereo not given) | inactive: -6.74%
CP(=O)(Nc1ccc(SC(F)(F)F)cc1)Oc1ccc(Cl)cc1 (stereo not given) | inactive: -3.83%
CCN(CC)CCCOC(=O)C(O)(c1ccccc1)c1ccccc1 | inactive: 3.7%
COc1ccc(OP(C)(=O)Nc2cccc(F)c2)cc1 (stereo not given) | inactive: -0.41%
COc1ccccc1OP(C)(=O)Nc1cc(Cl)ccc1C (stereo not given) | inactive: -6.8%
Cc1cc(C)cc(OP(C)(N)=O)c1 (stereo not given) | inactive: -11.1%
CCOC(=O)c1ccc(NP(C)(=O)Oc2ccccc2)cc1 (stereo not given) | inactive: -2.25%
Cc1ccc(NP(C)(=O)Oc2ccccc2)c(C)c1 (stereo not given) | inactive: -1.55%
COc1ccccc1OP(C)(=O)Nc1ccc(C)cc1 (stereo not given) | inactive: -1.7%
Cc1cccc(C)c1OP(C)(N)=O (stereo not given) | inactive: -4.27%
CC(C)(C)c1ccc(OP(C)(=O)Nc2ccc(SC(F)(F)F)cc2)cc1 (stereo not given) | inactive: -6.23%
O=[N+]([O-])c1cc([N+](=O)[O-])c(Nc2cccnc2)c([N+](=O)[O-])c1 | inactive: -0.877%
CC1=NCCc2c1[nH]c1ccccc21.O=[N+]([O-])c1cc([N+](=O)[O-])c(O)c([N+](=O)[O-])c1 | inactive: -4.64%
O=C(O)c1cccc(Nc2c([N+](=O)[O-])cc([N+](=O)[O-])cc2[N+](=O)[O-])c1 | inactive: -0.495%
Cc1cc(C)cc(OP(C)(=O)Nc2ccccn2)c1 (stereo not given) | inactive: -5.62%
CP(=O)(Nc1cccc(Br)c1)Oc1ccccc1 (stereo not given) | inactive: -8.7%
Cc1ccc(C)c(NP(C)(=O)Oc2ccccc2)c1 (stereo not given) | inactive: 2.47%

Structure (SMILES) | inhibition
Cc1cc(C)cc(OP(C)(=O)Nc2ccc(C)cc2C)c1 (stereo not given) | inactive: -5.39%
CCOC(=O)c1ccc(NP(C)(=O)Oc2cc(C)cc(C)c2)cc1 (stereo not given) | inactive: 0.714%
COc1ccccc1OP(C)(=O)Nc1cccc(Br)c1 (stereo not given) | inactive: -2.2%
Cc1nc2ccc3ccccc3c2s1.O=[N+]([O-])c1cc([N+](=O)[O-])c(O)c([N+](=O)[O-])c1 | inactive: -6.14%
O=[N+]([O-])c1cc([N+](=O)[O-])c(-c2cnn(-c3ccccc3)c2)c([N+](=O)[O-])c1 | inactive: -8.84%
O=[N+]([O-])c1cc([N+](=O)[O-])c(-n2nnc3ccccc32)c([N+](=O)[O-])c1 | inactive: -2.64%
CCCOc1ccc(NP(C)(=O)Oc2ccc(Cl)cc2)cc1 (stereo not given) | inactive: -2.14%
CP(=O)(Nc1ccc(SC(F)(F)F)cc1)Oc1ccccc1 (stereo not given) | inactive: -5.17%
COc1ccccc1OP(C)(=O)Nc1c(C)cccc1C (stereo not given) | inactive: -3.96%
CN1CCCCC1COC(=O)C1(O)c2ccccc2CCc2ccccc21 (stereo not given) | inactive: -0.155%
CCOC(=O)C(CC)C1=NC(C)(C)Cc2ccccc21.O=[N+]([O-])c1cc([N+](=O)[O-])c(O)c([N+](=O)[O-])c1 (stereo not given) | inactive: -4.49%
CC1=C2N=C(C=C3N=C(C(C)=C4[N-][C@@](C)([C@@H]5N=C1[C@](C)(CCC(=O)NC[C@@H](C)OP(=O)([O-])O[C@H]1[C@@H](O)[C@@H](n6cnc7cc(C)c(C)cc76)O[C@@H]1CO)[C@H]5CC(N)=O)[C@@](C)(CC(N)=O)[C@@H]4CCC(N)=O)[C@@](C)(CC(N)=O)[C@@H]3CCC(N)=O)C(C)(C)[C@@H]2CCC(N)=O.[C-]#N.[Co+3] | inactive: 6.25%
O=[N+]([O-])c1cc([N+](=O)[O-])c(Nc2nnnn2CCO)c([N+](=O)[O-])c1 | inactive: -4.53%
O=[N+]([O-])c1cc([N+](=O)[O-])c(NCC2CCS(=O)(=O)C2)c([N+](=O)[O-])c1 (stereo not given) | inactive: -7.92%
COc1ccc(NP(C)(=O)Oc2ccccc2OC)cc1 (stereo not given) | inactive: -9.35%
CN(C)CCOC(=O)C(O)(c1ccccc1)C1CCCCC1 (stereo not given) | inactive: -2.41%
COc1ccc(OP(C)(=O)Nc2cccc(Br)c2)cc1 (stereo not given) | inactive: 3.69%
Cc1ccccc1NP(C)(=O)Nc1ccccc1C | inactive: 3.45%
CP(=O)(Nc1ccc2c(c1)OCCO2)Oc1ccccc1 (stereo not given) | inactive: -4.46%
CCOP(C)(=S)SCC(=O)NC(C)(CC)C(=O)O (stereo not given) | inactive: -4.74%
CP(=O)(Nc1ccc(SC(F)(F)F)cc1)Oc1ccc(F)cc1 (stereo not given) | inactive: -2.82%
COc1ccc2c(c1O)-c1c(O)c(OC)cc3c1[C@H](C2)[N+](C)(C)CC3.O=[N+]([O-])c1cc([N+](=O)[O-])c([O-])c([N+](=O)[O-])c1[O-] | inactive: -4.76%
O=C(OCCN1CCN(CCOCc2ccccc2)CC1)C(O)(c1ccccc1)c1ccccc1 | inactive: -1.03%
O=C(OC1CN2CCC1CC2)c1ccc([N+](=O)[O-])cc1 (stereo not given) | inactive: -4.26%
CC(C)c1ccc(OP(C)(=O)Nc2ccc(SC(F)(F)F)cc2)cc1 (stereo not given) | inactive: -4.98%
CP(=O)(Nc1ccccc1F)Oc1ccccc1 (stereo not given) | inactive: -2.25%
O=[N+]([O-])c1cc([N+](=O)[O-])c(OC2CCCCC2O)c([N+](=O)[O-])c1 (stereo not given) | inactive: -4.84%
